Data on one compound can be found in ChEMBL document CHEMBL1123646, “2-Phenylpyrroles as conformationally restricted benzamide analogues. A new class of potential antipsychotics. 1” (J Med Chem, 1987).

The chains behind the UniProt entries cited, without tags or fusion partners.
UniProt P61169, whole entry: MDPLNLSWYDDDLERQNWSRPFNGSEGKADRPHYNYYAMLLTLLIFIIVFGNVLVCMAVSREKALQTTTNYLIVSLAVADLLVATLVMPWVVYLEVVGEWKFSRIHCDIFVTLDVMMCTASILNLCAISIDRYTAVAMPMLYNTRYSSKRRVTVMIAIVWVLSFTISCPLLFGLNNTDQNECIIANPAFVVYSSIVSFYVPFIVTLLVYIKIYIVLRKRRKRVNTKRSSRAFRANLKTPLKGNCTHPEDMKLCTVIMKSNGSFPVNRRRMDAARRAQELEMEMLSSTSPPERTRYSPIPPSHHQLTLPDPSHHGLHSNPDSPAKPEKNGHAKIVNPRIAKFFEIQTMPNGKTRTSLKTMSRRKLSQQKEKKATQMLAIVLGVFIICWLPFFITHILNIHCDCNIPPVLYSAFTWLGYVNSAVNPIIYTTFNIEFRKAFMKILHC

The target of this experiment is D(2) dopamine receptor (Rattus norvegicus, UniProt P61169). In words: Ability to inhibit the [3H]spiperone binding to striatum Dopamine receptor D2 was determined in rat. The experiment is classed as tissue-based.

On to `COc1ccccc1N1CCN(CCNC(=O)c2ccc(F)cc2)CC1`, for which the affinity, expressed as Ki, was 5 nM.

The Ki is a measure of affinity in units of concentration, obtained from inhibition or displacement.
